Source: US20040121316A1 (priority 2002, published 2004)
Where two headings read alike, the source gives them in different places.

Target: T1, recombinant HIV-1 protease (Human immunodeficiency virus type 1 group M subtype B, UniProt P04585)
T1 construct: Enzyme: recombinant HIV-1 protease expressed in E.Coli; purchased Bachem California, Inc. H-9040; host or cells: E. coli
Assay: biochemical

Row | Structure (SMILES) | Ki (Ki) [nM] | further results
1 | CCCCOC(=O)C(CC(C)C)NP(=O)(COc1ccc(CC(NC(=O)OC2COC3OCCC23)C(O)CN(CC(C)C)S(=O)(=O)c2ccc(OC)cc2)cc1)NC(CC(C)C)C(=O)OCCCC (stereo not shown) [Example 16h] |  | Ki (HIV-1 protease inhibition Ki): 0.0317 ± 0.0193 nM
2 | CCOC(=O)C(C)NP(=O)(COc1ccc(CC(NC(=O)OC2COC3OCCC23)C(O)CN(CC(C)C)S(=O)(=O)c2ccc(OC)cc2)cc1)OCc1ccccc1 (stereo not shown) [Example 30e] | < 0.01 | 
3 | CCOP(=O)(COc1ccc(S(=O)(=O)N(CC(C)C)CC(O)C(Cc2ccc(N)cc2)NC(=O)OC2COC3OCCC23)cc1)OCC (stereo not shown) [NH2, OEt] |  | Ki (read-out: Ki): 0.1 to 1 nM
4 | CCOP(=O)(COc1ccc(S(=O)(=O)N(CC(C)C)CC(O)C(Cc2ccc(N(C)C)cc2)NC(=O)OC2COC3OCCC23)cc1)OCC (stereo not shown) [NMe2, OEt] |  | Ki (read-out: Ki): 0.01 to 0.1 nM
5 | CC(C)CN(CC(O)C(Cc1ccc(OCCN(C)C)cc1)NC(=O)OC1COC2OCCC12)S(=O)(=O)c1ccc(OCP(=O)(OCc2ccccc2)OCc2ccccc2)cc1 (stereo not shown) [OC2H4-NMe2, OBn] |  | Ki (read-out: Ki): 0.01 to 0.1 nM
6 | CC(C)CN(CC(O)C(Cc1ccc(OCCN(C)C)cc1)NC(=O)OC1COC2OCCC12)S(=O)(=O)c1ccc(OCP(=O)(O)O)cc1 (stereo not shown) [OC2H4NMe2, OH] |  | Ki (read-out: Ki): < 0.01 nM
7 | Nc1n[nH]c2ccc(CN3C(=O)N(CCCOCP(=O)(O)O)C(Cc4ccccc4)C(O)C(O)C3Cc3ccccc3)cc12 (stereo not shown) [OCH2PO3H2] |  | Ki (read-out: Ki): 0.809 nM
8 | CCOP(=O)(COc1ccc(CC2C(O)C(O)C(Cc3ccc(OC)cc3)N(Cc3cccc(N)c3)C(=O)N2Cc2cccc(N)c2)cc1)OCC (stereo not shown) [OCH3/Ph-mNH2/OCH2PO3Et2] |  | IC50: 3.6 nM; Ki (Enzymatic assay Ki (nM)): < 0.01 nM
9 | CCOP(=O)(CCNC(=O)Oc1ccc(CC2C(O)C(O)C(Cc3ccc(OC)cc3)N(Cc3cccc(N)c3)C(=O)N2Cc2cccc(N)c2)cc1)OCC (stereo not shown) [OCH3/Ph-mNH2/OCONH(CH2)2PO3Et2] |  | IC50 (read-out: Enzymatic assay WT IC50/nM): 11.3 nM
10 | CCOP(=O)(CCNC(=O)Oc1ccc(CC2C(O)C(O)C(Cc3ccc(OC)cc3)N(Cc3ccc(O)cc3)C(=O)N2Cc2ccc(O)cc2)cc1)OCC (stereo not shown) [OCH3/Ph-pOH/OCONH(CH2)2PO3Et2] |  | IC50: 6.6 nM
11 | CC(C)CN(CC(O)C(Cc1ccccc1)NC(=O)OC1COC2OCCC12)S(=O)(=O)c1ccc(OCP(=O)(O)NC(C)C(=O)O)cc1 (stereo not shown) [OH, Ala-OH] |  | Ki (pM): + +
12 | CC(C)CN(CC(O)C(Cc1ccc(O)cc1)NC(=O)OC1COC2OCCC12)S(=O)(=O)c1ccc(OCP(=O)(OCc2ccccc2)OCc2ccccc2)cc1 (stereo not shown) [OH, OBn] |  | Ki (read-out: Ki): 0.01 to 0.1 nM
13 | CC(C)CN(CC(O)C(Cc1ccc(O)cc1)NC(=O)OC1COC2OCCC12)S(=O)(=O)c1ccc(OCP(=O)(O)O)cc1 (stereo not shown) [OH, OH] |  | Ki (read-out: Ki): 0.01 to 0.1 nM
14 | CC(C)CN(CC(O)C(Cc1ccc(O)cc1)NC(=O)OC1COC2OCCC12)S(=O)(=O)c1cccc(N)c1 (stereo not shown) [OH, m-NH2] |  | Ki (pM): + +
15 | CC(C)CN(CC(O)C(Cc1ccc(O)cc1)NC(=O)OC1COC2OCCC12)S(=O)(=O)c1ccc(N)cc1 (stereo not shown) [OH, p-NH2] |  | Ki (pM): + +
16 | COc1ccc(S(=O)(=O)N(CC(C)C)CC(O)C(Cc2ccc(OCP(=O)(OCC(F)(F)F)OCC(F)(F)F)cc2)NC(=O)OC2COC3OCCC23)cc1 (stereo not shown) [drawing 608 R1=OCH2CF3 R2=OCH2CF3] | 0.01 to 0.1 | 
17 | CCOP(=O)(COc1ccc(CC(NC(=O)OC2COC3OCCC23)C(O)CN(CC(C)C)S(=O)(=O)c2ccc(OC)cc2)cc1)OCc1ccccc1 (stereo not shown) [drawing 608 R1=OEt R2=OBn] | 0.01 to 0.1 | 
18 | COc1ccc(S(=O)(=O)N(CC(C)C)CC(O)C(Cc2ccc(OCP(=O)(O)O)cc2)NC(=O)OC2COC3OCCC23)cc1 (stereo not shown) [drawing 608 R1=OH R2=OH] | < 0.01 | 

Row | Structure (SMILES) | Ki (Ki) [nM] | further results
19 | COc1ccc(S(=O)(=O)N(CC(C)C)CC(O)C(Cc2ccc(OCP(=O)(OC)OC)cc2)NC(=O)OC2COC3OCCC23)cc1 (stereo not shown) [drawing 608 R1=OMe R2=OMe] | 0.01 to 0.1 | 
20 | COc1ccc(S(=O)(=O)N(CC(C)C)CC(O)C(Cc2ccc(OCP(=O)(OC(C)C)OC(C)C)cc2)NC(=O)OC2COC3OCCC23)cc1 (stereo not shown) [drawing 608 R1=OiPr R2=OiPr] | 0.01 to 0.1 | 
21 | CCOP(=O)(COc1ccc(CC(NC(=O)OC2COC3OCCC23)C(O)CN(CC(C)C)S(=O)(=O)c2ccc(O)cc2)cc1)OCC (stereo not shown) [drawing 609 R1=Et R2=Et] | < 0.01 | 
22 | CC(C)CN(CC(O)C(Cc1ccc(OCP(=O)(O)O)cc1)NC(=O)OC1COC2OCCC12)S(=O)(=O)c1ccc(O)cc1 (stereo not shown) [drawing 609 R1=OH R2=OH] | < 0.01 | 
23 | CCCCOC(=O)C(CC)NP(=O)(COc1ccc(CC(NC(=O)OC2COC3OCCC23)C(O)CN(CC(C)C)S(=O)(=O)c2ccc(OC)cc2)cc1)NC(CC)C(=O)OCCCC (stereo not shown) [drawing 612 R1=Aba-Bu R2=Aba-Bu] | < 0.01 | 
24 | CCCCOC(=O)C(C)NP(=O)(COc1ccc(CC(NC(=O)OC2COC3OCCC23)C(O)CN(CC(C)C)S(=O)(=O)c2ccc(OC)cc2)cc1)NC(C)C(=O)OCCCC (stereo not shown) [drawing 612 R1=Ala-Bu R2=Ala-Bu] | 0.01 to 0.1 | 
25 | CCOC(=O)C(C)NP(=O)(COc1ccc(CC(NC(=O)OC2COC3OCCC23)C(O)CN(CC(C)C)S(=O)(=O)c2ccc(OC)cc2)cc1)NC(C)C(=O)OCC (stereo not shown) [drawing 612 R1=Ala-Et R2=Ala-Et] | 0.01 to 0.1 | 
26 | CCCCOC(=O)CNP(=O)(COc1ccc(CC(NC(=O)OC2COC3OCCC23)C(O)CN(CC(C)C)S(=O)(=O)c2ccc(OC)cc2)cc1)NCC(=O)OCCCC (stereo not shown) [drawing 612 R1=Gly-Bu R2=Gly-Bu] | < 0.01 | 
27 | CCOC(=O)CNP(=O)(COc1ccc(CC(NC(=O)OC2COC3OCCC23)C(O)CN(CC(C)C)S(=O)(=O)c2ccc(OC)cc2)cc1)NCC(=O)OCC (stereo not shown) [drawing 612 R1=Gly-Et R2=Gly-Et] | 0.01 to 0.1 | 
28 | CCCCOC(=O)C(CC(C)C)NP(=O)(COc1ccc(CC(NC(=O)OC2COC3OCCC23)C(O)CN(CC(C)C)S(=O)(=O)c2ccc(OC)cc2)cc1)NC(CC(C)C)C(=O)OCCCC (stereo not shown) [drawing 612 R1=Leu-Bu R2=Leu-Bu] | 0.01 to 0.1 | 
29 | CCOC(=O)C(CC(C)C)NP(=O)(COc1ccc(CC(NC(=O)OC2COC3OCCC23)C(O)CN(CC(C)C)S(=O)(=O)c2ccc(OC)cc2)cc1)NC(CC(C)C)C(=O)OCC (stereo not shown) [drawing 612 R1=Leu-Et R2=Leu-Et] | 0.01 to 0.1 | 
30 | CCNP(=O)(COc1ccc(CC(NC(=O)OC2COC3OCCC23)C(O)CN(CC(C)C)S(=O)(=O)c2ccc(OC)cc2)cc1)NCC (stereo not shown) [drawing 612 R1=NHEt R2=NHEt] | < 0.01 | 
31 | CCOC(=O)C(NP(=O)(COc1ccc(CC(NC(=O)OC2COC3OCCC23)C(O)CN(CC(C)C)S(=O)(=O)c2ccc(OC)cc2)cc1)NC(C(=O)OCC)C(C)C)C(C)C (stereo not shown) [drawing 612 R1=Val-Et R2=Val-Et] | 0.1 to 1 | 
32 | CCOC(=O)C(C)OP(=O)(COc1ccc(CC(NC(=O)OC2COC3OCCC23)C(O)CN(CC(C)C)S(=O)(=O)c2ccc(OC)cc2)cc1)OC(C)C(=O)OCC (stereo not shown) [drawing 613 R1=Lac-Et R2=Lac-Et] | 0.01 to 0.1 | 
33 | COc1ccc(S(=O)(=O)N(CC(C)C)CC(O)C(Cc2ccc(OCP(=O)(OC(C)C(=O)OC(C)C)OC(C)C(=O)OC(C)C)cc2)NC(=O)OC2COC3OCCC23)cc1 (stereo not shown) [drawing 613 R1=Lac-iPr R2=Lac-iPr] | 0.01 to 0.1 | 
34 | COc1ccc(S(=O)(=O)N(CC(C)C)CC(O)C(Cc2ccc(OCP(=O)(O)NC(C)C(=O)O)cc2)NC(=O)OC2COC3OCCC23)cc1 (stereo not shown) [drawing 614 R1=OH R2=Ala-OH] | < 0.01 | 
35 | COc1ccc(S(=O)(=O)N(CC(C)C)CC(O)C(Cc2ccc(OCP(=O)(O)OC(C)C(=O)O)cc2)NC(=O)OC2COC3OCCC23)cc1 [drawing 615 R1=OH R2=(R)Lac-OH] | 0.01 to 0.1 | 
36 | COc1ccc(S(=O)(=O)N(CC(C)C)CC(O)C(Cc2ccc(OCP(=O)(O)OC(C)C(=O)O)cc2)NC(=O)OC2COC3OCCC23)cc1 (stereo not shown) [drawing 615 R1=OH R2=Lac-OH] | < 0.01 | 
